For two compounds, IC50 results are on record in ChEMBL document CHEMBL1133086, “Design, synthesis, and X-ray crystal structure of a potent dual inhibitor of thymidylate synthase and dihydrofolate reductase as an antitumor agent” (J Med Chem, 2000).

Chains of the proteins cited; added tags and fusions are not shown.
UniProt P00381, whole entry: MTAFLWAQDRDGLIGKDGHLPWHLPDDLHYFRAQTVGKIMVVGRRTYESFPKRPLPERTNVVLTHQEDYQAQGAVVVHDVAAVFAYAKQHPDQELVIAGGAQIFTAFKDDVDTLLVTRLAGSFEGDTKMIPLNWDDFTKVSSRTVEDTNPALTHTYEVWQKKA
UniProt C3SWJ7, whole entry: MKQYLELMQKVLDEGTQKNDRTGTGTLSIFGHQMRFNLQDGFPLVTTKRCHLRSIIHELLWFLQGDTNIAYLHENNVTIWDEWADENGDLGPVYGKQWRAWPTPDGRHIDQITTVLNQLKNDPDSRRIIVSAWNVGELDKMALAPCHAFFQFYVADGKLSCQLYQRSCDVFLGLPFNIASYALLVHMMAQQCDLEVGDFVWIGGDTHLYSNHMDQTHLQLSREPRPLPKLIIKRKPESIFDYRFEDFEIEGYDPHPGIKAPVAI

Assay [1] has as its target T1, Bifunctional dihydrofolate reductase-thymidylate synthase (Toxoplasma gondii, UniProt Q07422).
T1 sequence (Q07422 whole entry): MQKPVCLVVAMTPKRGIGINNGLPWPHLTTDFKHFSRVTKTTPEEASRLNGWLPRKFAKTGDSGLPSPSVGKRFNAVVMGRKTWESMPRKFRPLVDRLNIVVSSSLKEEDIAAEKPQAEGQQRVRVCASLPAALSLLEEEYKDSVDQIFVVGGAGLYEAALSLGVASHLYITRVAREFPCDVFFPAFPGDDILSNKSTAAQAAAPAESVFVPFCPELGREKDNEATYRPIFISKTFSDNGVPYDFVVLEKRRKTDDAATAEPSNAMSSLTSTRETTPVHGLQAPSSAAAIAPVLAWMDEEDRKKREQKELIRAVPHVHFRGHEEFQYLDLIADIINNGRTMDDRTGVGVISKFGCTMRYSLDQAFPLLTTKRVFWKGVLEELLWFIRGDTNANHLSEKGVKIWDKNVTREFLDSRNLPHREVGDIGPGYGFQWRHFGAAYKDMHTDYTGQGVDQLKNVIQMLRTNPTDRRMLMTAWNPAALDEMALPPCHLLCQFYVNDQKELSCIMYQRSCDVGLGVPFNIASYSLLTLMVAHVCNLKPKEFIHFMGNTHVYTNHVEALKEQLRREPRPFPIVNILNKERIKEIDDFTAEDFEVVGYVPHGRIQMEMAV

The target in the next assay is Dihydrofolate reductase (Lactobacillus casei, UniProt P00381). Kind of assay: Inhibitory concentration against isolated Lactobacillus casei Dihydrofolate reductase. On the set-up: species or system Lacticaseibacillus casei.
For a further assay, the target named is Thymidylate synthase (Escherichia coli, UniProt C3SWJ7). The assay is described as follows: Inhibitory concentration against isolated Escherichia coli Thymidylate synthase.

As for `Nc1nc2[nH]cc(CCc3ccc(C(=O)N[C@@H](CCC(=O)O)C(=O)O)cc3)c2c(=O)[nH]1` [PEMETREXED], the 50% inhibitory concentration (IC50) (in general, the concentration needed to halve the response being measured) amounted to 1.4 µM in assay [1], 2.3 µM on Dihydrofolate reductase and 110 µM on Thymidylate synthase.
At Thymidylate synthase, `Cc1nc2ccc(CN(C)c3ccc(C(=O)N[C@@H](CCC(=O)O)C(=O)O)s3)cc2c(=O)[nH]1` [RALTITREXED] showed an IC50 of 10 µM.
